Experimental data taken from patent US9006242B2, “Substituted benzene compounds” (Epizyme, Inc., priority 2012, dated 2015).
Where two headings read alike, the source gives them in different places.

Tested on: CYP1A, CYP2B6, CYP2C9, CYP3A
Format: in vitro ADME, human
[1] = human hepatocytes, 1 or 10 μmol/L

**Q.** For `CCN(c1cc(C#CC2CCN(C)CC2)cc(C(=O)NCc2c(C)cc(C)[nH]c2=O)c1C)C1CCOCC1` [Compound 105, N-((4,6-Dimethyl-2-oxo-1,2-dihydropyridin-3-yl)methyl)-3-(ethyl(tetrahydro-2H-pyran-4-yl)amino)-2-methyl-5-((1-methylpiperidin-4-yl)ethynyl)benzamide], which “CYP induction (in words)” value is on record?
**A.** Its value is “induction of CYP2B6, CYP2C9, and CYP3A”.

**Q.** Which “CYP induction (in words)” value [1] does the source give for `CCN(c1cc(-c2ccc(OCCOC)cc2)cc(C(=O)NCc2c(C)cc(C)[nH]c2=O)c1C)[C@H]1CC[C@H](N(C)C)CC1` [Compound 1, N-((4,6-dimethyl-2-oxo-1,2-dihydropyridin-3-yl)methyl)-5-(((trans)-4-(dimethylamino)-cyclohexyl)(ethyl)-amino)-4′-(2-methoxyethoxy)-4-methyl-[1,1′-biphenyl]-3-carboxamide] here?
**A.** The value was “no significant induction (except potentially CYP2C9)”.

**Q.** For `CCN(c1cc(C#CCN2CCOCC2)cc(C(=O)NCc2c(C)cc(C)[nH]c2=O)c1C)[C@H]1CC[C@H](N(C)CCOC)CC1` [Compound 2, N-((4,6-dimethyl-2-oxo-1,2-dihydropyridin-3-yl)methyl)-3-(ethyl((trans)-4-((2-methoxyethyl)(methyl)amino)cyclohexyl)amino)-2-methyl-5-(3-morpholinoprop-1-yn-1-yl)benzamide], which “CYP induction (in words)” value [1] is on record?
**A.** The value was “no induction (with slightly lower activity)”.
